“And” between values parts separate entries of the source, which are not always exact repeats. Identical values can stand only once.

Holding throughout (assay): Synergy of cannabidiol with cell-wall disrupting agent (CBD MIC in combination, FICI)
The subject of assay [1] is Enterobacter cloacae CI Patercon BoxNo: 79 (GN_016), MDR. Conditions: Example 8, CBD + MCC_00636, calculated with CBD MIC 256 μg/mL.
The test system of assay [2] is Klebsiella pneumoniae BAA-2146 (GN_045), NDM-1. The class given is cell-based. Conditions: Example 9, CBD + MCC_09222, calculated with CBD MIC 256 μg/mL. Here is the method: (§1) The compounds were stored short term at 4° C.
(§2) Analysis was performed using Microsoft Excel.

The subject of assay [3] is Klebsiella pneumoniae ATCC 13883 (GN_003 / GN_004). It counts as cell-based. To be noted: Example 4, CBD + MCC_006442, calculated with CBD MIC 256 μg/mL, listed as CBD. Here is the method:
as §1, §2

The test system of assay [4] is Escherichia coli ATCC 25922 (GN_001). It counts as cell-based. To be noted: calculated with CBD MIC 256 μg/mL. As for the experimental part:
as §1, §2

For assay [5], the system named is Escherichia coli HS71 (GN_110), CTX-M. It counts as cell-based. To be noted: Example 9, CBD + MCC_09222, calculated with CBD MIC 256 μg/mL. As for the experimental part:
as §1, §2

Assay [6] concerns Pseudomonas aeruginosa ATCC 27853 (GN_042). It counts as cell-based. Conditions: Example 6, CBD + Polymyxin B, calculated with CBD MIC 256 μg/mL, listed as CBD. Here is the method: as §1, §2
In assay [7] the test system is Acinetobacter baumannii ATCC 19606 (GN_034). It counts as cell-based. Here is the method:
as §1, §2

As to `C=C(C)C1CCC(C)=CC1c1c(O)cc(CCCCC)cc1O` (stereo not drawn) [Cannabidiol, 2-[3-methyl-6-(1-methylethenyl)-2-cyclohexen-1-yl]-5-pentyl-1,3-benzenediol], the FICI range in assay [1] was 0.04-1.02; in assay [2], 0.13-1.03; in assay [3], 0.25-1.13 and 0.13-1.06; in assay [4] (Example 3, CBD + colistin), 0.16-1.06; in assay [4] (Example 6, CBD + Polymyxin B, listed as CBD), 0.26-1.13 and 0.27-1.13; in assay [5], 0.08-4. Further, the FICI range is 0.26-1.13 and 0.27-1.13 in assay [6]; 0.38-2 in assay [7] (Example 2, CBD + cefuroxime, calculated with CBD MIC 256 μg/mL); 0.05-1 in assay [7] (Example 3, CBD + colistin, calculated with CBD MIC 256 μg/mL); 0.07-1.02 in assay [7] (Example 4, CBD + MCC_006442, calculated with CBD MIC 256 μg/mL); 0.38-1.13 in assay [7] (Example 5, CBD + aztreonam, calculated with CBD MIC 256 μg/mL); 0.38-1.13 in assay [7] (Example 5, CBD + cefepime, calculated with CBD MIC 256 μg/mL).
